By UniProt entry, the sequences of proteins in these tests, tags left out. Residues count along the entry.
UniProt P54278, 1-365 limits assumed: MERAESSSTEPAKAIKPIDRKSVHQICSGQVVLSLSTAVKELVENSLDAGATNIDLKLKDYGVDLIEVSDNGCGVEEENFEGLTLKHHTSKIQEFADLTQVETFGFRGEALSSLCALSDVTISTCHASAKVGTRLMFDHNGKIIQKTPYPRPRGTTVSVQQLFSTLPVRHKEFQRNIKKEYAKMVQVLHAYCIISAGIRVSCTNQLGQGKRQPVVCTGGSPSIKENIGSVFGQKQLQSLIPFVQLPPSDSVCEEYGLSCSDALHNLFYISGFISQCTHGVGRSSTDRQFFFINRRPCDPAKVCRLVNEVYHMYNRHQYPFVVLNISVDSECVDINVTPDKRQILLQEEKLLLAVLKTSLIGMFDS

In US20260384394A1, “(HETERO)ARYL-CARBONYL-HETEROBICYCLIC COMPOUNDS AS INHIBITORS OF PMS2 FOR CANCER AND DEGENERATIVE ILLNESSES” (published 2026):

Target: recombinant N-terminal PMS2 (residues 1-365) (Homo sapiens, UniProt P54278)
Experiment: Fluorescence Polarisation Assay for PMS2 (displacement of fluorescent probe compound)
Conditions: read-out: PMS2 IC50, 10 nM N-terminal PMS2, 5 nM probe compound, pH 7.5, room temperature, 30 min pre-incubation then 1 hour
Description: Fluorescence Polarisation Assay for PMS2
Test compounds, as 10 mM DMSO stocks, were dispensed into a Black Fluotrac 200 384 well medium binding plate (Greiner Bio-One, item number 781076) using a Labcyte Echo acoustic liquid handler. For single point screening, test compounds were added to wells in columns 1-22 whilst DMSO was added to wells in columns 23 and 24 in order to normalise the plate. For potency determination, serial dilutions of test compounds were added to wells in columns 3-22 and DMSO volume was normalised across the plate.
20 μL of a 2× solution (20 nM) of recombinant N-terminal PMS2 (residues 1-365) in assay buffer (25 mM HEPES, pH 7.5, 250 mM NaCl, 10 mM MgCl2, 0.01% Triton X-100, 5 mM Dithiothreitol) was added to all wells in columns 2-23 for potency determination or columns 1-23 for single point screening. 20 μL assay buffer was added to all wells in columns 1 and 24 (column 24 only for single point screening) using a MultiDrop Combi (ThermoFisher). Plates were centrifuged for 1 minute at 250×g and were incubated at room temperature for 30 minutes prior to the addition of 20 μL of 2×(20 nM) of 5-((5-(4-((2-(2,4-dihydroxy-5-isopropylbenzoyl)isoindolin5-yl)methyl)piperazin-1-yl)pentyl)carbamoyl)-2-(6-(dimethylamino)-3-(dimethyliminio)-3H-xanthen-9-yl)benzoate (referred to hereinafter as “probe compound”) in assay buffer (prepared from a 100 μM DMSO stock) with a MultiDrop Combi (ThermoFisher). The final concentration of N-terminal PMS2 was 10 nM and the final concentration of probe compound was 5 nM.
Compound plates were centrifuged for 1 minute at 250×g for 1 minute and were incubated at room temperature for 1 hour before being read on a PheraStar FSX (fitted with 384-well aperture spoon and 540 590 590 FP optic module). The gain and focus were adjusted before each plate was read so that the polarisation of a no enzyme control (column 24) was equal to 35 mP. Data were normalised against the no inhibitor controls (column 23) and no enzyme controls (column 24).

Compound	IC50
C=CC(=O)N(C)c1ccc2c(c1)CN(C(=O)c1cc(Cl)c(O)cc1O)CC2	< 0.1 µM
CN(C)C/C=C/C(=O)N(C)c1cccc2c1CN(C(=O)c1cc3c(cc1O)NCC3(C)C)C2	> 1 µM
C=CC(=O)N(C)c1ccc2c(c1)CN(C(=O)c1cc(C(C)(C)C)c(OC)cc1O)CC2	0.1 to 1 µM
CN(C)C/C=C/C(=O)Nc1cccc2c1CN(C(=O)c1ccc(N)cc1O)C2	> 1 µM
CN(C)C/C=C/C(=O)N(C)c1cccc2c1CN(C(=O)c1ccc(O)c(C(C)(C)C)c1)C2	0.1 to 1 µM
Cc1cc(C(=O)N2Cc3ccc(Cl)c(N(C)C(=O)/C=C/CN(C)C)c3C2)c(O)cc1O	< 0.1 µM
CC#CC(=O)N(C)c1cc2c(cc1OCCN(C)C)CCN(C(=O)c1c(O)cc(OC)c(Cl)c1C)C2	> 1 µM
C=CC(=O)N(C)c1cc2c(nc1C)CCN(C(=O)c1cc(C(C)C)c(OC)cc1O)C2	0.1 to 1 µM
C=CC(=O)N(C)c1cc(OCCN(C)C)cc2c1CN(C(=O)c1cc(C)c(O)cc1O)C2	< 0.1 µM
CC(C)c1cc(C(=O)N2CCc3ccc(N(C)C(=O)/C=C/CN(C)C)cc3C2)c(O)cc1O	< 0.1 µM
Cc1c(O)ccc(C(=O)N2Cc3cccc(N(C)C(=O)/C=C/CN(C)C)c3C2)c1C	0.1 to 1 µM
C=CC(=O)N(C)c1cccc2c1CN(C(=O)c1c(O)cc(OC)c(Cl)c1F)C2	> 1 µM
COc1cc(O)c(C(=O)N2Cc3ccc(Cl)c(N(C)C(=O)/C=C/CN(C)C)c3C2)cc1C(C)(C)C	0.1 to 1 µM
C=CC(=O)Nc1cnc2c(c1)CN(C(=O)c1cc(C(C)C)c(OC)cc1O)CC2	> 1 µM
C=CC(=O)N(C)c1cccc2c1CN(C(=O)c1c(O)cc(O)c(Cl)c1F)C2	< 0.1 µM
CC(C)c1cc(C(=O)N2Cc3cccc(N(C)C(=O)/C=C/CN(C)C)c3C2)c(O)cc1F	> 1 µM
CN(C)C/C=C/C(=O)Nc1cccc2c1CN(C(=O)c1cc(C(F)(F)F)c(O)cc1O)C2	< 0.1 µM
C=CC(=O)N(C)c1cccc2c1CN(C(=O)c1cc(C)c(O)cc1O)C2	0.1 to 1 µM
COc1cc(O)c(C(=O)N2CCc3ccc(N(C)C(=O)/C=C/CN(C)C)cc3C2)cc1C(C)(C)C	0.1 to 1 µM
Cc1cc(C(=O)N2Cc3cccc(N(CCO)C(=O)/C=C/CN(C)C)c3C2)c(O)cc1O	< 0.1 µM
C=CC(=O)Nc1cccc2c1CN(C(=O)c1cc(C)c(O)cc1O)C2	0.1 to 1 µM
COc1cc(O)c(C(=O)N2Cc3ccc(Cl)c(N(C)C(=O)/C=C/CN(C)C)c3C2)c(C)c1Cl	> 1 µM
C=CC(=O)N(C)c1cccc2c1CN(C(=O)c1c(O)cc(O)c(Cl)c1C)C2	< 0.1 µM
C=CC(=O)N(C)c1ccc2c(c1)CN(C(=O)c1cc3c(cc1O)NC(=O)C3(C)C)CC2	0.1 to 1 µM
CC(C)c1cc(C(=O)N2Cc3cc(N(C)C(=O)/C=C/CN(C)C)ccc3CC2C)ccc1O (stereo not shown)	0.1 to 1 µM

Compound	IC50
Cc1cc(C(=O)N2Cc3c(Cl)ccc(N(C)C(=O)/C=C/CN(C)C)c3C2)c(O)cc1O	< 0.1 µM
Cc1ccc2c(c1N(C)C(=O)/C=C/CN(C)C)CN(C(=O)c1c(O)cc(O)c(C)c1C)C2	< 0.1 µM
Cc1c(Cl)c(OC(F)F)cc(O)c1C(=O)N1Cc2cccc(N(C)C(=O)/C=C/CN(C)C)c2C1	0.1 to 1 µM
Cc1cc(C(=O)N2Cc3cccc(NC(=O)/C=C/CN4CC(F)(F)C4)c3C2)c(O)cc1O	> 1 µM
CN(C)C/C=C/C(=O)N(C)c1cnc2c(c1)CN(C(=O)c1cc(C(C)(C)C)ccc1O)CC2	> 1 µM
COc1cc(O)ccc1C(=O)N1Cc2cccc(NC(=O)/C=C/CN(C)C)c2C1	> 1 µM
CN(C)C/C=C/C(=O)Nc1cccc2c1CN(C(=O)c1cc(Cl)c(O)cc1O)C2	< 0.1 µM
CN(C)C/C=C/C(=O)N(C)c1cccc2c1CN(C(=O)c1cc3c(cc1O)NC(=O)C3(C)C)C2	0.1 to 1 µM
CN(C)C/C=C/C(=O)N(C)c1cccc2c1CN(C(=O)c1ccc(O)c(C(F)(F)F)c1)C2	> 1 µM
Cc1cc(C(=O)N2Cc3cccc(N(CCC4CCOCC4)C(=O)/C=C/CN(C)C)c3C2)c(O)cc1O	< 0.1 µM
CN(C)C/C=C/C(=O)Nc1cccc2c1CN(C(=O)c1ccc(O)cc1C(F)F)C2	> 1 µM
(E)-N-(2-(2,4-Dihydroxybenzoyl) isoindolin-4-yl)-4-(diethylamino)-N-((1-methyl-1H-pyrazol-4-yl)methyl)but-2-enamide	0.1 to 1 µM
COc1cc(O)c(C(=O)N2Cc3ccc(Cl)c(N(C)C(=O)/C=C/CN(C)C)c3C2)cc1Cl	0.1 to 1 µM
CN(C)C/C=C/C(=O)N(C)c1cccc2c1CN(C(=O)c1cc(C(C)(C)C)c(O)cc1O)C2	< 0.1 µM
CN(C)C/C=C/C(=O)N(C)c1c(Cl)ccc2c1CN(C(=O)c1cc(C(C)(C)C)c(O)cc1O)C2	< 0.1 µM
Cc1c(Cl)ccc(O)c1C(=O)N1CCc2ccc(N(C)C(=O)/C=C/CN(C)C)cc2C1	> 1 µM
CN(C)C/C=C/C(=O)N(C)c1ccc2c(c1)CN(C(=O)c1cc(C(C)(C)C)ccc1O)CC2	> 1 µM
Cc1cc(C(=O)N2CCc3ccc(NC(=O)/C=C/CN(C)C)cc3C2)c(O)cc1O	0.1 to 1 µM
COc1nc2c(cc1N(C)C(=O)/C=C/CN(C)C)CN(C(=O)c1ccc(O)c(C(C)C)c1)CC2	0.1 to 1 µM
C=CC(=O)N(C)c1cc2c(nc1C)CCN(C(=O)c1c(O)cc(OC)c(Cl)c1C)C2	0.1 to 1 µM
COc1cc(O)c(C(=O)N2Cc3cccc(N(C)C(=O)/C=C/CN(C)C)c3C2)cc1C(C)C	0.1 to 1 µM
Cc1cc(C(=O)N2Cc3cccc(N(CCc4cccnc4)C(=O)/C=C/CN(C)C)c3C2)c(O)cc1O	< 0.1 µM
COc1cc(O)c(C(=O)N2Cc3cccc(N(C)C(=O)/C=C/CN(C)C)c3C2)cc1Cl	> 1 µM
CC#CC(=O)Nc1cnc2c(c1)CN(C(=O)c1c(O)cc(OC)c(Cl)c1C)CC2	> 1 µM
C=CC(=O)N(C)c1cc2c(cc1C)CCN(C(=O)c1cc(C(C)C)c(OC)cc1O)C2	0.1 to 1 µM

Compound	IC50
COC/C=C/C(=O)Nc1cccc2c1CN(C(=O)c1cc(C)c(O)cc1O)C2	0.1 to 1 µM
COc1cc(O)c(C(=O)N2CCc3nc(OC)c(N(C)C(=O)/C=C/CN(C)C)cc3C2)cc1C(C)C	0.1 to 1 µM
Cc1cc(C(=O)N2CCc3ccc(N(C)C(=O)/C=C/CN(C)C)cc3C2)c(O)cc1O	< 0.1 µM
C=CC(=O)N(C)c1cc2c(cc1OCCN(C)C)CCN(C(=O)c1c(O)cc(OC)c(Cl)c1C)C2	< 0.1 µM
C=CC(=O)N(C)c1cccc2c1CN(C(=O)c1c(C)cc(O)cc1O)C2	0.1 to 1 µM
Cc1[nH]c2cc(O)c(C(=O)N3Cc4cccc(N(C)C(=O)/C=C/CN(C)C)c4C3)cc2c1C	0.1 to 1 µM
CN(C)C/C=C/C(=O)Nc1cccc2c1CN(C(=O)c1ccccc1)C2	> 1 µM
Cc1cc(C(=O)N2Cc3cccc(N(Cc4ccncc4)C(=O)/C=C/CN(C)C)c3C2)c(O)cc1O	< 0.1 µM
COc1cc(O)c(C(=O)N2Cc3ccc(C)c(N(C)C(=O)/C=C/CN(C)C)c3C2)cc1Cl	> 1 µM
C=CC(=O)Nc1cccc2c1CN(C(=O)c1cc(C(C)(C)C)c(O)cc1O)C2	< 0.1 µM
COc1cc(O)c(C(=O)N2Cc3cccc(N(C)C(=O)/C=C/CN(C)C)c3C2)cc1C	> 1 µM
CN(C)C/C=C/C(=O)Nc1cccc2c1CN(C(=O)c1ccc(O)cc1F)C2	> 1 µM
C=CC(=O)N(C)c1cccc2c1CN(C(=O)c1c(O)c(CN)cc(C(C)(C)C)c1F)C2	> 1 µM
Cc1c(O)cc(O)c(C(=O)N2Cc3c(Cl)ccc(N(C)C(=O)/C=C/CN(C)C)c3C2)c1C	< 0.1 µM
C=CC(=O)N(C)c1c(Cl)ccc2c1CN(C(=O)c1c(O)cc(OC)c(Cl)c1C)C2	> 1 µM
C=CC(=O)N(C)c1ccc2c(c1)CN(C(=O)c1cc(C(C)C)c(F)cc1O)CC2	> 1 µM
Cc1c(O)cc(O)c(C(=O)N2Cc3cccc(N(CCc4ccccn4)C(=O)/C=C/CN(C)C)c3C2)c1C	< 0.1 µM
CCN(C)C/C=C/C(=O)N(C)c1cccc2c1CN(C(=O)c1c(O)cc(O)c(Cl)c1C)C2	< 0.1 µM
CC(C)c1cc(C(=O)N2CCc3ccc(N(C)C(=O)/C=C/CN(C)C)cc3C2)c(O)cc1F	> 1 µM
C=CC(=O)N(C)c1cccc2c1CN(C(=O)c1cc(Cl)c(OC)cc1O)C2	> 1 µM
Cc1c(Cl)ccc(O)c1C(=O)N1Cc2cccc(N(C)C(=O)/C=C/CN(C)C)c2C1	> 1 µM
Cc1c(C(=O)N2Cc3cccc(N(C)C(=O)/C=C/CN(C)C)c3C2)ccc(O)c1Cl	0.1 to 1 µM
COc1ccc(C(=O)N2Cc3cccc(NC(=O)/C=C/CN(C)C)c3C2)c(O)c1	> 1 µM
